Experimental data from ChEMBL document CHEMBL1147912, “1-(1,3-Benzodioxol-5-ylmethyl)-3-[4-(1H-imidazol-1-yl)phenoxy]-piperidine analogs as potent and selective inhibitors of nitric oxide formation” (Bioorg Med Chem Lett, 2007).

Sequences of proteins named here, by UniProt entry; tags and fusion partners are left off.
UniProt P29475, whole entry, looked up: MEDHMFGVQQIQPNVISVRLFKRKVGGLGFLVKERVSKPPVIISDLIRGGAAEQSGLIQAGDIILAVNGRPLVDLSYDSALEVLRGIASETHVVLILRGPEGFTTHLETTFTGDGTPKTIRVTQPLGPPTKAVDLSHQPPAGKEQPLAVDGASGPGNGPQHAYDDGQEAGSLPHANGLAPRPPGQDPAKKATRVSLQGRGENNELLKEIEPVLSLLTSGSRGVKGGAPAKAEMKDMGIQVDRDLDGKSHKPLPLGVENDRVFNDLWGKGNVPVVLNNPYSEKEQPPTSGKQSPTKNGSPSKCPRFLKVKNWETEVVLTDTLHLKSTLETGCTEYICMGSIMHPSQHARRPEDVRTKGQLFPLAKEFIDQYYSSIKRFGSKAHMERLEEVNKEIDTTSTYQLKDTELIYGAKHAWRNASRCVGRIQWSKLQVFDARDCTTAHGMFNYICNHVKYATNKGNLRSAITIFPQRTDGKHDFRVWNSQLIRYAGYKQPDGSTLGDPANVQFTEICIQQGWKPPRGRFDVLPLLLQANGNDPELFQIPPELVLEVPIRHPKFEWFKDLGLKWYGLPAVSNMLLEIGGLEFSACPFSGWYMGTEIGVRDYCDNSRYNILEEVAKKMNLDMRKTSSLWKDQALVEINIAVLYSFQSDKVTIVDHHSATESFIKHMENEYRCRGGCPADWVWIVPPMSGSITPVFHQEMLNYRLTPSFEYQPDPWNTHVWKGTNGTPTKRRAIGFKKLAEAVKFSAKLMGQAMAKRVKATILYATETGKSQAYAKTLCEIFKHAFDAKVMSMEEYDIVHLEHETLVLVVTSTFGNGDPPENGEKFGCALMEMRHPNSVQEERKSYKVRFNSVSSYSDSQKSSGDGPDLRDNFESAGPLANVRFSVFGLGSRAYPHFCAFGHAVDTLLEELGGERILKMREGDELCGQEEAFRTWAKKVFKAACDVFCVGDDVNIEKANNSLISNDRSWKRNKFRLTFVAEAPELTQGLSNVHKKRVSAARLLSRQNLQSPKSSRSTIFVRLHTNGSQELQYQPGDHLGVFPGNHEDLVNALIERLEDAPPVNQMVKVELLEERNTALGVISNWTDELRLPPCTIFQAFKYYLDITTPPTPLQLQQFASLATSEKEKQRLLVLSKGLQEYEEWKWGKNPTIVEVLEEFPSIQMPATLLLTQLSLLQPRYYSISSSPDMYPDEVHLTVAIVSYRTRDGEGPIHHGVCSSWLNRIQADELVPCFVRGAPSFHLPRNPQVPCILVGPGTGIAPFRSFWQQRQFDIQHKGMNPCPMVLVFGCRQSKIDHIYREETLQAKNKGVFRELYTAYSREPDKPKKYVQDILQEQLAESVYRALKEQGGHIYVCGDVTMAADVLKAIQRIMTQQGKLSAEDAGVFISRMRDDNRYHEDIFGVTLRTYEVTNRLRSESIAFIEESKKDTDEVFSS
UniProt P35228, whole entry, looked up: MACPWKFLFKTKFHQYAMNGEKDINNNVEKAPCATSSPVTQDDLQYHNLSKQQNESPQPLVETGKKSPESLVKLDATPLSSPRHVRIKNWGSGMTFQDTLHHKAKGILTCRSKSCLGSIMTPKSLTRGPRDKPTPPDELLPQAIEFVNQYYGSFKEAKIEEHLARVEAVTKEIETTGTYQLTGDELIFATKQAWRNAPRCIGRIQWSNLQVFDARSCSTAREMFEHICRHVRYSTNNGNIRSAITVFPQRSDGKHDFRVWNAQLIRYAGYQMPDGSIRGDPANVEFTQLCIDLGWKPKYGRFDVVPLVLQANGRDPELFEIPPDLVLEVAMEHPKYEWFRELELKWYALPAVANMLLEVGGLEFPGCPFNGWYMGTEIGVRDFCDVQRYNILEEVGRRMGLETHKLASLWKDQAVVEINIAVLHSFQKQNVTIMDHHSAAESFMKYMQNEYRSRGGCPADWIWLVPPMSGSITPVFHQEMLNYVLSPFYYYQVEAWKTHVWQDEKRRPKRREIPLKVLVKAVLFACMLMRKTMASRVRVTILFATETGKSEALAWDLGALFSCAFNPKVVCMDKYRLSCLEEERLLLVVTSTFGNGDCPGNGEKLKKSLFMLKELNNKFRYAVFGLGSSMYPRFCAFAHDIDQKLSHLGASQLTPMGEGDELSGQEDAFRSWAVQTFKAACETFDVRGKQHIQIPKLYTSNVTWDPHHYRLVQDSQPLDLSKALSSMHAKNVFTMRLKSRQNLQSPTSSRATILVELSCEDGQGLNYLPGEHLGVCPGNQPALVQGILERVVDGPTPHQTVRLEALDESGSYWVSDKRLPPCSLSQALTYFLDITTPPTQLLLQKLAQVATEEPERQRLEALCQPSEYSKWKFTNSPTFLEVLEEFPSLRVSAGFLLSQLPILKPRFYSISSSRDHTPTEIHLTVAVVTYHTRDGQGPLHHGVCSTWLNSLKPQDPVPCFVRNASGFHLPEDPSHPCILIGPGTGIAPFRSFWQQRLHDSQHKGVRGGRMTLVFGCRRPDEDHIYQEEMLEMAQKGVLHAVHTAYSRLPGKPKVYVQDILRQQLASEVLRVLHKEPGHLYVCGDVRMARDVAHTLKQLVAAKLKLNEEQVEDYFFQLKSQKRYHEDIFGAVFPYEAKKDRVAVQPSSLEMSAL

Legend:
[1] = species: Homo sapiens; test: Selectivity for iNOS over eNOS in tetracycline-induced system
[2] = molecular target: Nitric oxide sythases; iNOS & nNOS (Homo sapiens) (UniProt P29475+P35228); test: Selectivity for iNOS over nNOS in tetracycline-induced system

Compound | Ratio IC50 [1] | Ratio IC50 [2]
c1cn(-c2ccc(OC3CCCN(Cc4ccc5c(c4)OCO5)C3)cc2)cn1 (stereo not given) | 400 | 350
c1cn(-c2ccc(OC3CCCN(Cc4ccc5c(c4)OCO5)C3)nn2)cn1 (stereo not given) | > 17 | > 17
c1cn(-c2ccc(OC[C@H]3CCCN3Cc3ccc4c(c3)OCO4)cc2)cn1 | – | > 80
c1cn(-c2ccc(O[C@H]3CCCN(Cc4ccc5c(c4)OCO5)C3)cc2)cn1 | 420 | 600
c1cn(-c2ccc(NC3CCCN(Cc4ccc5c(c4)OCO5)C3)cc2)cn1 (stereo not given) | – | 439
c1cn(-c2ccc(OCC3CCCCN3Cc3ccc4c(c3)OCO4)cc2)cn1 (stereo not given) | > 46 | > 46
